We go through three compounds from patent US20040067932A1 (priority 2002, published 2004).

Protein sequences, listed by entry. Tags and fused reporters are not part of them.
UniProt P0DMS8, whole entry: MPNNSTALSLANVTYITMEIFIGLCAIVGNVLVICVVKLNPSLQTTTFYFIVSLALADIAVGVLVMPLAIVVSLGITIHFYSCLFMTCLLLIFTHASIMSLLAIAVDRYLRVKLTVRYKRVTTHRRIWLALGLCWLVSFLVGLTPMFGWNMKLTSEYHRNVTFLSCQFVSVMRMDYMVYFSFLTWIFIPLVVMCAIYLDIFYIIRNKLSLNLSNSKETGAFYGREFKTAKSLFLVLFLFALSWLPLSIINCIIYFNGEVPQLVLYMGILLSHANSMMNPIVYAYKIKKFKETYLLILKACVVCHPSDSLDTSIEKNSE

Each structure is given as a SMILES string. Read-outs that look alike come from different tables or passages of the source.

The subject of experiment [1] is A375 cells. Nature of the experiment: Flow cytometry (PI) G2/M accumulation and sub-G1 apoptosis, A375. The class given is cell-based, human. The settings on record: MRE 3008F20 10 μM. The procedure:
A375 and NCTC2544 adherent cells were trypsinized, mixed with floating cells, washed with PBS and permeabilised in 70% (vol/vol) ethanol/PBS solution at 4° C. for at least 24 hours. Jurkat, HeL023 and PBMC cells were centrifuged for 10 minutes at 1000×g. The cell pellet was then resuspended and permeabilised in 70% (vol/vol) ethanol/PBS solution at 4° C. for at least 24 hours. The cells were washed with PBS and the DNA was stained with a PBS solution, containing 20 μg/ml of propidium iodide and 100 μg/ml of RNAse, at room temperature for 30 minutes. Cells were analysed by FACScan (Becton-Dickinson) and the content of DNA was evaluated by the Cell-LISYS program (Becton-Dickinson). Cell distribution among cell cycle phases and apoptotic cells was evaluated as previously described (Secchiero et al., 2001). Briefly, the cell cycle distribution is shown as the percentage of cells containing 2n (G1 phase), 4n (G2 and M phases), 4n>x>2n. DNA amount (S phase) judged by propidium iodide staining. The apoptotic population is the percentage of cells with DNA content lower than 2n.
Cell proliferation and apoptosis are quantified by flow cytometer analysis after propidium-iodide (PI) DNA staining.

The target in experiment [2] is hA3 adenosine receptor (Homo sapiens, UniProt P0DMS8). Nature of the experiment: Binding affinity at hA3 adenosine receptor. Conditions: for rA1/hA3 / rA2A/hA3: selectivity ratio of Ki.
The target of experiment [3] is human A3 adenosine receptor (Homo sapiens, UniProt P0DMS8). Nature of the experiment: biochemical.
The subject of experiment [4] is human melanoma A375 cell line. Put plainly: MTT growth inhibitory assay, A375. The class given is cell-based. Conditions: A3 antagonist 10 μg/ml, paclitaxel 0.0002-0.1 μg/ml. (In general: Formazan colour is commonly taken as a measure of viable cells.)
Experiment [5] relates to human pancreatic cancer Panc-1. Nature of the experiment: MTT growth inhibitory assay, Panc-1. The class given is cell-based. Conditions: A3 antagonist 0.5 μg/ml.

On to `CCCn1cc2c(nc(NC(=O)Nc3ccc(OC)cc3)n3nc(-c4ccco4)nc23)n1` [MRE3008F20], for which, in experiment [1], the “fold reduction of paclitaxel EC50 (G2/M)” value came out at 1.9 fold, the “fold reduction of paclitaxel ECMAX” value is reported as 2.0 fold, the “fold reduction of vindesine EC50 (G2/M)” value came out at 4.0 fold and the “fold reduction of vindesine ECMAX” value is 2.1 fold. In experiment [2], the rA1/hA3 is reported as >34,482 and the rA2A/hA3 is on record as 6,872. Affinity in experiment [3] was put at a Ki of 3.1 ± 0.3 nM. Besides, the “Enhancement Factor for paclitaxel” value in experiment [4] is 8.5.

Turning to `CCN(CC)c1ccc(NC(=O)Nc2nc3nn(C)cc3c3nc(-c4ccco4)nn23)cc1` [IL-10, N-1-(4-diethylamino-phenyl)-N′-5-[8-methyl-2-(2-furyl)-pyrazolo[4 ,3-e]1,2,4-triazolo[1,5-c]pyrimidine]-urea], in experiment [2], the affinity, expressed as Ki, was 27 nM; the rA1/hA3 is on record as 21.5; the rA2A/hA3 was found to be 19.4. Moreover, the affinity in experiment [3] corresponds to a Ki of 30 ± 2.5 nM.

Turning to `CN(C)c1ccc(NC(=O)Nc2nc3nn(C)cc3c3nc(-c4ccco4)nn23)cc1` [IL-11, N-1-(4-dimethylamino-phenyl)-N′-5-[8-methyl-2-(2-furyl)-pyrazolo[4,3-e]1,2,4-triazolo[1,5-c]pyrimidine]-urea], the Ki (commonly a dissociation constant, usually derived from enzyme kinetics or from competition with a known ligand) in experiment [2] (read-out: hA3 (Ki)) was determined as 15 nM. In experiment [2], the rA1/hA3 is given as above 6700 and the rA2A/hA3 is given as above 6700. Moreover, the “Enhancement Factor for paclitaxel” value in experiment [5] is recorded as 1.8.
